Laboratory results as given in patent US10905706B2, “Compositions and methods to accelerate resolution of acute lung inflammation” (The Johns Hopkins University, priority 2015, dated 2021).

Tests used:
[1] = tested on: CD4+ CD25− cells (conventional T cells); assay: Lymphocyte culture with DAC, FACS phenotype of conventional T cells; settings: 48 h culture, anti-CD3/CD28, IL-2; DAC 10 or 100 nM
[2] = tested on: global DNA methylation in Tregs; assay: Global DNA methylation in cultured Tregs; settings: 100 nM DAC, 48 hours, vs vehicle

Structure (SMILES): Nc1ncn([C@H]2C[C@H](O)[C@@H](CO)O2)c(=O)n1 [DAC, 5-aza-2′-deoxycytidine]
- Foxp3 expression in conventional T cells [1]: induced Foxp3 expression
- proportion of methylated DNA (relative to methylated control DNA) [2]: significant decrease
